Literature values as cited in patent US20110123612A1, “PHARMACEUTICAL PREPARATION CONTAINING NON-DIHYDROPYRIDINE CALCIUM CHANNEL BLOCKER AND ANGIOTENSIN-2 RECEPTOR BLOCKER” (priority 2008, published 2011).

Protein sequences, listed by entry. Tags and fused reporters are not part of them.
UniProt P08684, whole entry: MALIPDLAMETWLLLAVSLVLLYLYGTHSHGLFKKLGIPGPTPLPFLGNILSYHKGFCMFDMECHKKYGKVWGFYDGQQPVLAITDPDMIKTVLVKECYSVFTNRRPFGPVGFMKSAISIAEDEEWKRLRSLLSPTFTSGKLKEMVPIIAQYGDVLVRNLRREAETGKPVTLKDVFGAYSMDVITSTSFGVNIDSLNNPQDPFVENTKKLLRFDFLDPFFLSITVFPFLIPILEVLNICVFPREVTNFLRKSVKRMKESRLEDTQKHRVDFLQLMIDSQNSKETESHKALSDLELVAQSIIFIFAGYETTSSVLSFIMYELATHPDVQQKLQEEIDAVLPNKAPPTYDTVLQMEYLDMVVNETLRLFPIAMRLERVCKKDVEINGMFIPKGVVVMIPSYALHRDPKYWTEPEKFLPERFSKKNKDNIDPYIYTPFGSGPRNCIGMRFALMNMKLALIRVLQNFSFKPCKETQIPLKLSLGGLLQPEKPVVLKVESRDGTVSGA

Biological target: cytochrome P450 3A4 (Homo sapiens, UniProt P08684)

SMILES: CNCCN1C(=O)[C@H](OC(C)=O)[C@H](c2ccc(OC)cc2)Sc2ccccc21 [N-desmethyl diltiazem]
- inhibitory effects on cytochrome P450 3A4: more potent inhibitory effects on the synthesis of cytochrome P450 3A4 than diltiazem

SMILES: COc1ccc([C@@H]2Sc3ccccc3N(CCN)C(=O)[C@@H]2OC(C)=O)cc1 [N,N-didesmethyl diltiazem]
- inhibitory effects on cytochrome P450 3A4: more potent inhibitory effects on the synthesis of cytochrome P450 3A4 than diltiazem
